# Test results: ChEMBL document CHEMBL5260839 (J Med Chem, 2019)
# Protein sequences, listed by entry. Tags and fused reporters are not part of them. Lines headed by an entry give the natural chain unless they say otherwise; changes in a name come on top.
# UniProt Q00987, whole entry, looked up: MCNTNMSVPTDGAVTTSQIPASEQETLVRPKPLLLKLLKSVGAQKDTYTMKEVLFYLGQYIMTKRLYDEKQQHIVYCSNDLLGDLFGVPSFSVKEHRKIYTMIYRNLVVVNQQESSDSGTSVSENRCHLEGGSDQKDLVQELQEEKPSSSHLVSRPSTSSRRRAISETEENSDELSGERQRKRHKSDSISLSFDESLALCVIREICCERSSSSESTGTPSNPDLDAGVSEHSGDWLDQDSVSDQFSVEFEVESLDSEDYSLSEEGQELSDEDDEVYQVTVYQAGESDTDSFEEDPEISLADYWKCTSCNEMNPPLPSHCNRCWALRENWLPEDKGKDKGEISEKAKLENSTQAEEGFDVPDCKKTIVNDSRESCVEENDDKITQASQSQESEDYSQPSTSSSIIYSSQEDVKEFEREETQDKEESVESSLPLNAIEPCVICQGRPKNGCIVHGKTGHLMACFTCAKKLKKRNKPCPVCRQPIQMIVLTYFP
# UniProt Q96SW2: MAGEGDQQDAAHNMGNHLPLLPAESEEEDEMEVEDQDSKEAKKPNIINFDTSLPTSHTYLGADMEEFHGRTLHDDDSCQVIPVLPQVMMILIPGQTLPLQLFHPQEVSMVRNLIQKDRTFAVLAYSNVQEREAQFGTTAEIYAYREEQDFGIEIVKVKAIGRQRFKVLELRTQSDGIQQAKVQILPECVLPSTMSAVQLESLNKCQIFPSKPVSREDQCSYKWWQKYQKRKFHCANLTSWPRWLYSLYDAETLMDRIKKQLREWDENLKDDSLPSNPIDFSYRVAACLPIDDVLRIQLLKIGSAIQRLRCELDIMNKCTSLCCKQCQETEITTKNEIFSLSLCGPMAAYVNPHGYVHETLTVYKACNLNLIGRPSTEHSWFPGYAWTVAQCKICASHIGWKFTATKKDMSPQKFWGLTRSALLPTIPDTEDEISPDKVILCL
# Target: T1, Protein cereblon/E3 ubiquitin-protein ligase Mdm2 (Homo sapiens) (UniProt Q00987+Q96SW2)
# Assay: PROTAC activity at CRBN/MDM2 in human RS4-11 cells harbouring wildtype p53 assessed as decrease in MDM2 protein level at 30 nM incubated for 2 hrs by Western blot analysis
# Format: cell-based
row,SMILES,fold change (FC)
1,O=C1CCC(N2C(=O)c3cccc(NCCOCCNC(=O)c4ccc(NC(=O)[C@@H]5NC6(CCCCC6)[C@@]6(C(=O)Nc7cc(Cl)ccc76)[C@H]5c5cccc(Cl)c5F)cc4)c3C2=O)C(=O)N1 (some centres not stated),0.4
2,O=C1CCC(N2C(=O)c3cccc(NCCCCCNC(=O)c4ccc(NC(=O)[C@@H]5NC6(CCCCC6)[C@@]6(C(=O)Nc7cc(Cl)ccc76)[C@H]5c5cccc(Cl)c5F)cc4)c3C2=O)C(=O)N1 (some centres not stated),0.2

# Target: T1, Protein cereblon/E3 ubiquitin-protein ligase Mdm2 (Homo sapiens)
# Assay: PROTAC activity at CRBN/MDM2 in human RS4-11 cells harbouring wildtype p53 assessed as fold change in p53 accumulation at 3000 nM incubated for 2 hrs by Western blot analysis
# Format: cell-based
row,SMILES,fold change (FC)
1,O=C1CCC(N2Cc3c(C#CCCCNC(=O)c4ccc(NC(=O)[C@H]5NC6(CCCCC6)[C@]6(C(=O)Nc7cc(Cl)ccc76)[C@@H]5c5cccc(Cl)c5F)cc4)cccc3C2=O)C(=O)N1 (some centres not stated),1.3
2,CN1C(=O)CCC(N2Cc3c(C#CCCCNC(=O)c4ccc(NC(=O)[C@@H]5NC6(CCCCC6)[C@@]6(C(=O)Nc7cc(Cl)ccc76)[C@H]5c5cccc(Cl)c5F)cc4)cccc3C2=O)C1=O (some centres not stated),4.4

# Target: T1, Protein cereblon/E3 ubiquitin-protein ligase Mdm2 (Homo sapiens)
# Assay: PROTAC activity at CRBN/MDM2 in human RS4-11 cells harbouring wildtype p53 assessed as decrease in MDM2 protein level at 10 nM incubated for 2 hrs by Western blot analysis
# Format: cell-based
row,SMILES,fold change (FC)
1,O=C1CCC(N2C(=O)c3cccc(NCCOCCNC(=O)c4ccc(NC(=O)[C@@H]5NC6(CCCCC6)[C@@]6(C(=O)Nc7cc(Cl)ccc76)[C@H]5c5cccc(Cl)c5F)cc4)c3C2=O)C(=O)N1 (some centres not stated),0.3
2,O=C1CCC(N2C(=O)c3cccc(NCCCCCNC(=O)c4ccc(NC(=O)[C@@H]5NC6(CCCCC6)[C@@]6(C(=O)Nc7cc(Cl)ccc76)[C@H]5c5cccc(Cl)c5F)cc4)c3C2=O)C(=O)N1 (some centres not stated),0.4

# Target: T1, Protein cereblon/E3 ubiquitin-protein ligase Mdm2 (Homo sapiens)
# Assay: PROTAC activity at CRBN/MDM2 in human RS4-11 cells harbouring wildtype p53 assessed as fold change in MDM2 level at 3000 nM incubated for 2 hrs by Western blot analysis
# Format: cell-based
row,SMILES,fold change (FC)
1,O=C1CCC(N2Cc3c(C#CCCCNC(=O)c4ccc(NC(=O)[C@H]5NC6(CCCCC6)[C@]6(C(=O)Nc7cc(Cl)ccc76)[C@@H]5c5cccc(Cl)c5F)cc4)cccc3C2=O)C(=O)N1 (some centres not stated),1.4
2,CN1C(=O)CCC(N2Cc3c(C#CCCCNC(=O)c4ccc(NC(=O)[C@@H]5NC6(CCCCC6)[C@@]6(C(=O)Nc7cc(Cl)ccc76)[C@H]5c5cccc(Cl)c5F)cc4)cccc3C2=O)C1=O (some centres not stated),2.4

# Target: T1, Protein cereblon/E3 ubiquitin-protein ligase Mdm2 (Homo sapiens)
# Assay: PROTAC activity at CRBN/MDM2 in human RS4-11 cells harbouring wildtype p53 assessed as fold change in p53 accumulation at 300 nM incubated for 2 hrs by Western blot analysis
# Format: cell-based
row,SMILES,fold change (FC)
1,O=C1CCC(N2Cc3c(C#CCCCNC(=O)c4ccc(NC(=O)[C@H]5NC6(CCCCC6)[C@]6(C(=O)Nc7cc(Cl)ccc76)[C@@H]5c5cccc(Cl)c5F)cc4)cccc3C2=O)C(=O)N1 (some centres not stated),1.3
2,CN1C(=O)CCC(N2Cc3c(C#CCCCNC(=O)c4ccc(NC(=O)[C@@H]5NC6(CCCCC6)[C@@]6(C(=O)Nc7cc(Cl)ccc76)[C@H]5c5cccc(Cl)c5F)cc4)cccc3C2=O)C1=O (some centres not stated),3.3

# Target: T1, Protein cereblon/E3 ubiquitin-protein ligase Mdm2 (Homo sapiens)
# Assay: PROTAC activity at CRBN/MDM2 in human RS4-11 cells harbouring wildtype p53 assessed as increase in p53 accumulation at 30 nM incubated for 2 hrs by Western blot analysis
# Format: cell-based
row,SMILES,fold change (FC)
1,O=C1CCC(N2C(=O)c3cccc(NCCOCCNC(=O)c4ccc(NC(=O)[C@@H]5NC6(CCCCC6)[C@@]6(C(=O)Nc7cc(Cl)ccc76)[C@H]5c5cccc(Cl)c5F)cc4)c3C2=O)C(=O)N1 (some centres not stated),4.1
2,O=C1CCC(N2C(=O)c3cccc(NCCCCCNC(=O)c4ccc(NC(=O)[C@@H]5NC6(CCCCC6)[C@@]6(C(=O)Nc7cc(Cl)ccc76)[C@H]5c5cccc(Cl)c5F)cc4)c3C2=O)C(=O)N1 (some centres not stated),3.9

# Target: T1, Protein cereblon/E3 ubiquitin-protein ligase Mdm2 (Homo sapiens)
# Assay: PROTAC activity at CRBN/MDM2 in human RS4-11 cells harbouring wildtype p53 assessed as decrease in MDM2 protein level at 100 nM incubated for 2 hrs by Western blot analysis
# Format: cell-based
row,SMILES,fold change (FC)
1,O=C1CCC(N2C(=O)c3cccc(NCCCCCCCNC(=O)c4ccc(NC(=O)[C@@H]5NC6(CCCCC6)[C@@]6(C(=O)Nc7cc(Cl)ccc76)[C@H]5c5cccc(Cl)c5F)cc4)c3C2=O)C(=O)N1 (some centres not stated),1

# Target: T1, Protein cereblon/E3 ubiquitin-protein ligase Mdm2 (Homo sapiens)
# Assay: PROTAC activity at CRBN/MDM2 in human RS4-11 cells harbouring wildtype p53 assessed as increase in p53 accumulation at 100 nM incubated for 2 hrs by Western blot analysis
# Format: cell-based
row,SMILES,fold change (FC)
1,O=C1CCC(N2C(=O)c3cccc(NCCCCCCCNC(=O)c4ccc(NC(=O)[C@@H]5NC6(CCCCC6)[C@@]6(C(=O)Nc7cc(Cl)ccc76)[C@H]5c5cccc(Cl)c5F)cc4)c3C2=O)C(=O)N1 (some centres not stated),1.3

# Target: T1, Protein cereblon/E3 ubiquitin-protein ligase Mdm2 (Homo sapiens)
# Assay: PROTAC activity at CRBN/MDM2 in human RS4-11 cells harbouring wildtype p53 assessed as decrease in MDM2 protein level at 300 nM incubated for 2 hrs by Western blot analysis
# Format: cell-based
row,SMILES,fold change (FC)
1,O=C1CCC(N2C(=O)c3cccc(NCCCCCCCNC(=O)c4ccc(NC(=O)[C@@H]5NC6(CCCCC6)[C@@]6(C(=O)Nc7cc(Cl)ccc76)[C@H]5c5cccc(Cl)c5F)cc4)c3C2=O)C(=O)N1 (some centres not stated),0.7

# Target: T2, E3 ubiquitin-protein ligase Mdm2 (Homo sapiens, UniProt Q00987)
# Assay: Inhibition of MDM2 in human RS4-11 cells harbouring wildtype p53 assessed as increase in p53 accumulation by measuring fold change at 300 nM incubated for 2 hrs by Western blot analysis
# Format: cell-based
row,fold change (FC),SMILES
1,2.5,O=C1CCC(N2C(=O)c3cccc(NC(=O)c4ccc(NC(=O)[C@@H]5NC6(CCCCC6)[C@@]6(C(=O)Nc7cc(Cl)ccc76)[C@H]5c5cccc(Cl)c5F)cc4)c3C2=O)C(=O)N1 (some centres not stated)
2,3.8,CNC(=O)c1ccc(NC(=O)[C@@H]2NC3(CCCCC3)[C@@]3(C(=O)Nc4cc(Cl)ccc43)[C@H]2c2cccc(Cl)c2F)cc1

# Target: T1, Protein cereblon/E3 ubiquitin-protein ligase Mdm2 (Homo sapiens)
# Assay: PROTAC activity at CRBN/MDM2 in human RS4-11 cells harbouring wildtype p53 assessed as fold change in MDM2 level at 1000 nM incubated for 2 hrs by Western blot analysis
# Format: cell-based
row,SMILES,fold change (FC)
1,O=C1CCC(N2Cc3c(C#CCCCNC(=O)c4ccc(NC(=O)[C@H]5NC6(CCCCC6)[C@]6(C(=O)Nc7cc(Cl)ccc76)[C@@H]5c5cccc(Cl)c5F)cc4)cccc3C2=O)C(=O)N1 (some centres not stated),1.6
2,CN1C(=O)CCC(N2Cc3c(C#CCCCNC(=O)c4ccc(NC(=O)[C@@H]5NC6(CCCCC6)[C@@]6(C(=O)Nc7cc(Cl)ccc76)[C@H]5c5cccc(Cl)c5F)cc4)cccc3C2=O)C1=O (some centres not stated),2.3

# Target: T2, E3 ubiquitin-protein ligase Mdm2
# Assay: Inhibition of MDM2 in human RS4-11 cells harbouring wildtype p53 assessed as decrease in MDM2 protein level by measuring fold change at 300 nM incubated for 2 hrs by Westernblot analysis
# Format: cell-based
row,fold change (FC),SMILES
1,0.9,O=C1CCC(N2C(=O)c3cccc(NC(=O)c4ccc(NC(=O)[C@@H]5NC6(CCCCC6)[C@@]6(C(=O)Nc7cc(Cl)ccc76)[C@H]5c5cccc(Cl)c5F)cc4)c3C2=O)C(=O)N1 (some centres not stated)

# Target: T1, Protein cereblon/E3 ubiquitin-protein ligase Mdm2 (Homo sapiens)
# Assay: PROTAC activity at CRBN/MDM2 in human RS4-11 cells harbouring wildtype p53 assessed as fold change in MDM2 level at 300 nM incubated for 2 hrs by Western blot analysis
# Format: cell-based
row,SMILES,fold change (FC)
1,O=C1CCC(N2Cc3c(C#CCCCNC(=O)c4ccc(NC(=O)[C@H]5NC6(CCCCC6)[C@]6(C(=O)Nc7cc(Cl)ccc76)[C@@H]5c5cccc(Cl)c5F)cc4)cccc3C2=O)C(=O)N1 (some centres not stated),1.4
2,CN1C(=O)CCC(N2Cc3c(C#CCCCNC(=O)c4ccc(NC(=O)[C@@H]5NC6(CCCCC6)[C@@]6(C(=O)Nc7cc(Cl)ccc76)[C@H]5c5cccc(Cl)c5F)cc4)cccc3C2=O)C1=O (some centres not stated),2.4

# Target: T2, E3 ubiquitin-protein ligase Mdm2
# Assay: Inhibition of MDM2 in human RS4-11 cells harbouring wildtype p53 assessed as increase in p53 accumulation by measuring fold change at 100 nM incubated for 2 hrs by Western blot analysis
# Format: cell-based
row,fold change (FC),SMILES
1,2.3,O=C1CCC(N2C(=O)c3cccc(NC(=O)c4ccc(NC(=O)[C@@H]5NC6(CCCCC6)[C@@]6(C(=O)Nc7cc(Cl)ccc76)[C@H]5c5cccc(Cl)c5F)cc4)c3C2=O)C(=O)N1 (some centres not stated)
2,3.2,CNC(=O)c1ccc(NC(=O)[C@@H]2NC3(CCCCC3)[C@@]3(C(=O)Nc4cc(Cl)ccc43)[C@H]2c2cccc(Cl)c2F)cc1

# Target: T1, Protein cereblon/E3 ubiquitin-protein ligase Mdm2 (Homo sapiens)
# Assay: PROTAC activity at CRBN/MDM2 in human RS4-11 cells harbouring wildtype p53 assessed as fold change in p53 accumulation at 1000 nM incubated for 2 hrs by Western blot analysis
# Format: cell-based
row,SMILES,fold change (FC)
1,O=C1CCC(N2Cc3c(C#CCCCNC(=O)c4ccc(NC(=O)[C@H]5NC6(CCCCC6)[C@]6(C(=O)Nc7cc(Cl)ccc76)[C@@H]5c5cccc(Cl)c5F)cc4)cccc3C2=O)C(=O)N1 (some centres not stated),1
2,CN1C(=O)CCC(N2Cc3c(C#CCCCNC(=O)c4ccc(NC(=O)[C@@H]5NC6(CCCCC6)[C@@]6(C(=O)Nc7cc(Cl)ccc76)[C@H]5c5cccc(Cl)c5F)cc4)cccc3C2=O)C1=O (some centres not stated),3.5

# Target: T2, E3 ubiquitin-protein ligase Mdm2
# Assay: Induction of MDM2 degradation in human RS4-11 cells harbouring wildtype p53 assessed as fold change in MDM2 protein level at 300 nM incubated for 2 hrs by Western blot analysis
# Format: cell-based
row,fold change (FC),SMILES
1,1.7,CNC(=O)c1ccc(NC(=O)[C@@H]2NC3(CCCCC3)[C@@]3(C(=O)Nc4cc(Cl)ccc43)[C@H]2c2cccc(Cl)c2F)cc1

# Target: T2, E3 ubiquitin-protein ligase Mdm2
# Assay: Inhibition of MDM2 in human RS4-11 cells harbouring wildtype p53 assessed as decrease in MDM2 protein level by measuring fold change at 100 nM incubated for 2 hrs by Westernblot analysis
# Format: cell-based
row,fold change (FC),SMILES
1,1.1,O=C1CCC(N2C(=O)c3cccc(NC(=O)c4ccc(NC(=O)[C@@H]5NC6(CCCCC6)[C@@]6(C(=O)Nc7cc(Cl)ccc76)[C@H]5c5cccc(Cl)c5F)cc4)c3C2=O)C(=O)N1 (some centres not stated)

# Target: T2, E3 ubiquitin-protein ligase Mdm2
# Assay: Induction of MDM2 degradation in human RS4-11 cells harbouring wildtype p53 assessed as fold change in MDM2 protein level at 100 nM incubated for 2 hrs by Western blot analysis
# Format: cell-based
row,fold change (FC),SMILES
1,1.4,CNC(=O)c1ccc(NC(=O)[C@@H]2NC3(CCCCC3)[C@@]3(C(=O)Nc4cc(Cl)ccc43)[C@H]2c2cccc(Cl)c2F)cc1

# Target: T1, Protein cereblon/E3 ubiquitin-protein ligase Mdm2 (Homo sapiens)
# Assay: PROTAC activity at CRBN/MDM2 in human RS4-11 cells harbouring wildtype p53 assessed as increase in p53 accumulation at 10 nM incubated for 2 hrs by Western blot analysis
# Format: cell-based
row,SMILES,fold change (FC)
1,O=C1CCC(N2C(=O)c3cccc(NCCOCCNC(=O)c4ccc(NC(=O)[C@@H]5NC6(CCCCC6)[C@@]6(C(=O)Nc7cc(Cl)ccc76)[C@H]5c5cccc(Cl)c5F)cc4)c3C2=O)C(=O)N1 (some centres not stated),3.4
2,O=C1CCC(N2C(=O)c3cccc(NCCCCCNC(=O)c4ccc(NC(=O)[C@@H]5NC6(CCCCC6)[C@@]6(C(=O)Nc7cc(Cl)ccc76)[C@H]5c5cccc(Cl)c5F)cc4)c3C2=O)C(=O)N1 (some centres not stated),2.2

# Target: T1, Protein cereblon/E3 ubiquitin-protein ligase Mdm2 (Homo sapiens)
# Assay: PROTAC activity at CRBN/MDM2 in human RS4-11 cells harbouring wildtype p53 assessed as increase in p53 accumulation at 300 nM incubated for 2 hrs by Western blot analysis
# Format: cell-based
row,SMILES,fold change (FC)
1,O=C1CCC(N2C(=O)c3cccc(NCCCCCCCNC(=O)c4ccc(NC(=O)[C@@H]5NC6(CCCCC6)[C@@]6(C(=O)Nc7cc(Cl)ccc76)[C@H]5c5cccc(Cl)c5F)cc4)c3C2=O)C(=O)N1 (some centres not stated),1.7
